ChEMBL document CHEMBL3588780, “Quinolyl analogues of norlobelane: novel potent inhibitors of [(3)H]dihydrotetrabenazine binding and [(3)H]dopamine uptake at the vesicular monoamine transporter-2” (Bioorg Med Chem Lett, 2015)

The chains behind the UniProt entries cited, without tags or fusion partners.
UniProt Q01827, whole entry: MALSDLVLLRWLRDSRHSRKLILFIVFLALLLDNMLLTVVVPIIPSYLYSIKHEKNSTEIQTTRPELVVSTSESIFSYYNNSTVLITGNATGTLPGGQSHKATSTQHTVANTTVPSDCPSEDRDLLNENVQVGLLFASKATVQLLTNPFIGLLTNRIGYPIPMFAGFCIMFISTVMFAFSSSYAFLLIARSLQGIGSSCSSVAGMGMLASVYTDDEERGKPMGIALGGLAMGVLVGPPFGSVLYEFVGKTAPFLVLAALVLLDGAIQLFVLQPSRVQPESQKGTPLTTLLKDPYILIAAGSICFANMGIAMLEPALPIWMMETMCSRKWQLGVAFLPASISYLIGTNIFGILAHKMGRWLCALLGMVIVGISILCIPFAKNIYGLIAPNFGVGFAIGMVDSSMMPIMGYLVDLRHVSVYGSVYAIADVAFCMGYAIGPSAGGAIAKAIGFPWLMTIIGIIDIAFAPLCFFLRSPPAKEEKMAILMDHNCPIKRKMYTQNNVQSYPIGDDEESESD

How the values were obtained:
[1] = target: Synaptic vesicular amine transporter (Rattus norvegicus) (UniProt Q01827); assay: Ratio of Ki for displacement of [3H]DTBZ from VMAT2 in rat whole brain to Ki for inhibition of VMAT2-mediated [3H]DA uptake in rat brain synaptic vesicles; format: tissue-based
[2] = target: Synaptic vesicular amine transporter (Rattus norvegicus) (UniProt Q01827); assay: Displacement of [3H]DTBZ from VMAT2 in rat whole brain relative to quinlobelane

Ratio Ki [1]: 3
Ratio Ki [2]: 15
SMILES: c1ccc2c(CC[C@H]3CCC[C@@H](CCc4ccnc5ccccc45)N3)ccnc2c1
